Patent US20190004036
Read-outs that look alike come from different tables or passages of the source.

T1: 5FAMcollagenPPT protease substrate
T1 sequence: AGGPLGPPGPGGK

T2: 5FAMcollagenPPT protease substrate
T2 chain: AGGPLGPPGPGGK

B1: thermolysin (protein)
chain: ITGTSTVGVGRGVLGDQKNINTTYSTYYYLQDNTRGNGIFTYDAKYRTTLPGSLWADADNQFFASYDAPAVDAHYYAGVTYDYYKNVHNRLSYDGNNAAIRSSVHYSQGYNNAFWNGSQMVYGDGDGQTFIPLSGGIDVVAHELTHAVTDYTAGLIYQNESGAINEAISDIFGTLVEFYANKNPDWEIGEDVYTPGISGDSLRSMSDPAKYGDPDHYSKRYTGTQDNGGVHINSGIINKAAYLISQGGTHYGVSVVGIGRDKLGKIFYRALTQYLTPTSNFSQLRAAAVQSATDLYGSTSQEVASVKQAFDAVGVK

Assays:
[1] = tested on: T1, 5FAMcollagenPPT protease substrate
[2] = target: T2, 5FAMcollagenPPT protease substrate

Row | Molecule | time-dependent cleavage assay (fluorescence at 1, 5, 24 h; 10 µM peptide, 20 µg/mL protease) [1] | time-dependent cleavage assay (fluorescence at 1, 5, 24 h; 10 µM peptide, 20 µg/mL protease) [2]
1 | Collagenase NB1 | almost all of the proteases tested, except for thermolysin, showed efficient cleavage of the protease substrate within the first hour | 
2 | Collagenase I/II | almost all of the proteases tested, except for thermolysin, showed efficient cleavage of the protease substrate within the first hour | 
3 | Neutral Protease | almost all of the proteases tested, except for thermolysin, showed efficient cleavage of the protease substrate within the first hour | 
4 | collagenase class I | almost all of the proteases tested, except for thermolysin, showed efficient cleavage of the protease substrate within the first hour | 
5 | B1 |  | by the five hour time point, thermolysin had also sufficiently cleaved the substrate
